For this experiment, the target named is A2A receptor (Homo sapiens, UniProt P29274). Kind of experiment: PET study in humans of A2A receptor occupancy with [11C]-SCH442416. Format: in vivo. As to conditions: putamen, Emax model vs CPET.

Consider `Cc1ccc(C(=O)Nc2nc(-c3ccco3)c(C(=O)C3CCOCC3)s2)cn1` [Compound 504], for which the “estimated Emax of A2A receptor occupancy” value was 88%.

(Values after patent US20180125835A1, “Dosage and Use of an A2A Antagonist” (H. Lundbeck A/S, priority 2014, published 2018).)
